This test has as its target Androgen receptor (Homo sapiens, UniProt P10275). In words: biochemical.

Amino acid sequences for entries named in this document (tags omitted). A change or cut given only in a name is not applied to a line headed by its entry.
UniProt P10275: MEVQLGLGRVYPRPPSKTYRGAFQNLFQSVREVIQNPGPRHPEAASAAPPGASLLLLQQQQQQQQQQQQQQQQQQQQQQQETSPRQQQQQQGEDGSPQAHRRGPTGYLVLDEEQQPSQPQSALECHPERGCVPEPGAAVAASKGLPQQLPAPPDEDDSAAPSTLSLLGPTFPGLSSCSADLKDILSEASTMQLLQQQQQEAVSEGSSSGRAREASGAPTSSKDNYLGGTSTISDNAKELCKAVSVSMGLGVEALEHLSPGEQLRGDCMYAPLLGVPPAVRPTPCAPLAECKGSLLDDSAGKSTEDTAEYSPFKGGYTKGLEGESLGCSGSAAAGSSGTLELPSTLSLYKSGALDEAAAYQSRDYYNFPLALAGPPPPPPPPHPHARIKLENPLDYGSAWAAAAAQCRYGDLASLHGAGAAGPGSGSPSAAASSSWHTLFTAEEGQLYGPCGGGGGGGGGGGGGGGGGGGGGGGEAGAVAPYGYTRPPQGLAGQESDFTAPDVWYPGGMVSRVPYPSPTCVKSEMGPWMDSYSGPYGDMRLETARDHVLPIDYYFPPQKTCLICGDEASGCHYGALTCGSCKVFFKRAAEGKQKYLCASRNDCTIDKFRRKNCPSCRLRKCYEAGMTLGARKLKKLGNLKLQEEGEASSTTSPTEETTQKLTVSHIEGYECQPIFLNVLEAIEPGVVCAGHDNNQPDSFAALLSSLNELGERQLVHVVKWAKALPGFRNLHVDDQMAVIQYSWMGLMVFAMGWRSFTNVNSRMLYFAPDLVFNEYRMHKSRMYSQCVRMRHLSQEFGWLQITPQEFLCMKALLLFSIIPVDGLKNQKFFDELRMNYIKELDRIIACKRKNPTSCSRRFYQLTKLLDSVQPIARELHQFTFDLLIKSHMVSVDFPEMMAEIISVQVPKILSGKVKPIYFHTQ

A value given as a limit tells only on which side of the number the result lay.

Usually Ki stands for the dissociation constant of the complex between target and ligand, obtained from inhibition or displacement. A lower Ki goes with a stronger hold on the target. As for `COc1ccc(CNc2cc(C(F)(F)F)c3cc4c(cc3n2)NC(C)(C)CC4)cc1`, the Ki was more than 1000 nM.
